The assay concerns the target FLAG-Fis1 full-length (human) (UniProt Q9Y3D6). Put plainly: co-IP; HEK293FT cells co-transfected; RIPA lysate; anti-FLAG M2 magnetic beads, FLAG-Fis1 as bait; wash 50 mM Tris-HCl, 300 mM NaCl, pH 7.4; eluted with 3× FLAG peptide; anti-HA blot.

By UniProt entry, the sequences of proteins in these tests, tags left out. Where a name states a change or a piece, a line headed by the entry shows the natural chain unless it says otherwise.
UniProt Q9Y3D6: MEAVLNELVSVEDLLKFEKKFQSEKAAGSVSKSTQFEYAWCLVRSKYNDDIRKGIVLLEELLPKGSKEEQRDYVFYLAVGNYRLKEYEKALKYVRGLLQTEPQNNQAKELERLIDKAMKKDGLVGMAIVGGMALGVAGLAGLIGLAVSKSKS

For one substance, reduction of co-precipitation against the WT construct results are on record in publication PMC12328794.

Regarding “HA-Bap31 C-terminal region truncated (ΔC) (domain or fragment)”, the reduction of co-precipitation against the WT construct came to 50%.
